Laboratory results from patent publication US12528818B2, “Compositions and methods for inhibition of RAS” (Leidos Biomedical Research, Inc., priority 2021, dated 2026).

Legend:
[1] = molecular target: GppNHp-loaded KRAS4b (amino acids 1-169) G12C/C118S protein (Homo sapiens, UniProt P01116, C118S/G12C); assay: Covalent cysteine 12 modification by MALDI-TOF MS, GppNHp-loaded KRAS G12C; format: biochemical; settings: 15 minutes reaction time, compound 95 or later using 1 μM proteins
[2] = molecular target: T1, GTP-loaded KRAS4b (amino acids 1-169) G12C/C118S protein (Homo sapiens, UniProt P01116, C118S/G12C); assay: Covalent cysteine 12 modification by MALDI-TOF MS, GTP-loaded KRAS G12C; format: biochemical; settings: 15 minutes reaction time, compound 95 or later using 1 μM proteins
T1 construct: KRAS4b (amino acids 1-169) G12C/C118S protein; made in house

[3] = molecular target: GDP-loaded KRAS4b (amino acids 1-169) G12C/C118S protein (Homo sapiens, UniProt P01116, C118S/G12C); assay: Covalent cysteine 12 modification by MALDI-TOF MS, GDP-loaded KRAS G12C; format: biochemical; settings: 15 minutes reaction time, compound 95 or later using 1 μM proteins
[4] = molecular target: Avi-KRAS G12C (1-169) GppNHp/RAF1 RBD-3xFLAG (52-151) (Homo sapiens, UniProt P01116, G12C); assay: biochemical; settings: Raf1-GppNHp-KRAS G12C disruption, Raf1 RBD-KRAS G12C-GppNHp disruption assay IC50

Structure (SMILES) | GppNHp-KRAS G12C percent of modification [1] | GTP-KRAS G12C percent of modification [2] | GDP-KRAS G12C percent of modification [3] | IC50 [4] [µM]
C=CC(=O)N1C[C@@H](F)[C@@H](N(CC)c2nc(OCC34CCCN3CCC4)nc3cc(-c4ccc(F)c5sc(N)c(C#N)c45)c(C(F)(F)F)cc23)C1 [Compound 376] | A (percent of modification ≥70%) | A (percent of modification ≥70%) | A (percent of modification ≥70%) | < 0.5
C=CC(=O)N1C[C@@H](F)[C@@H](N(CC)c2nc(OC[C@@]34CCCN3C[C@H](F)C4)nc3cc(-c4ccc(F)c5sc(N)c(C#N)c45)ccc23)C1 [Compound 377] | A (percent of modification ≥70%) | B (50≤percent of modification <70%) | A (percent of modification ≥70%) | < 0.5
C=CC(=O)N1C[C@H](C)N(c2nc(OC[C@@]34CCCN3C[C@H](F)C4)nc3c(F)c(-c4ccc(F)c5sc(NC(C)=O)c(C#N)c45)c(C(F)(F)F)cc23)C[C@H]1C [Compound 378] | D (percent of modification <10%) | D (percent of modification <10%) | B (50≤percent of modification <70%) | > 20
C=CC(=O)N1C[C@@H](F)[C@@H](N(C)c2nc(OC[C@@]34CCCN3C[C@H](F)C4)nc3c(C#N)c(-c4ccc(F)c5sc(N)c(C#N)c45)c(Cl)cc23)C1 [Compound 379] | A (percent of modification ≥70%) | A (percent of modification ≥70%) | A (percent of modification ≥70%) | < 0.5
C=CC(=O)N1C[C@@H](F)[C@@H](N(CC)c2nc(OC[C@@]34CCCN3C[C@H](F)C4)nc3c(C#N)c(-c4ccc(F)c5sc(N)c(C#N)c45)c(Cl)cc23)C1 [Compound 380] | B (50≤percent of modification <70%) | C (10%≤percent of modification <50%) | C (10%≤percent of modification <50%) | < 0.5
C=CC(=O)N1C[C@H](C)N(c2ncnc3c(F)c(-c4ccc(F)c5sc(N)c(C#N)c45)c(C(F)(F)F)cc23)C[C@H]1C [Compound 382] | C (10%≤percent of modification <50%) | D (percent of modification <10%) | A (percent of modification ≥70%) | < 0.5
C=CC(=O)N1CC[C@@H](N(C)c2ncnc3c(F)c(-c4ccc(F)c5sc(N)c(C#N)c45)c(C(F)(F)F)cc23)C1 [Compound 383, 4-(4-(((R)-1-acryloylpyrrolidin-3-yl)(methyl)amino)-8-fluoro-6-(trifluoromethyl)quinazolin-7-yl)-2-amino-7-fluorobenzo[b]thiophene-3-carbonitrile] | C (10%≤percent of modification <50%) | C (10%≤percent of modification <50%) | A (percent of modification ≥70%) | < 0.5
C=CC(=O)N1CC[C@@H](N(C)c2nc(OC)nc3c(F)c(-c4ccc(F)c5sc(N)c(C#N)c45)c(C(F)(F)F)cc23)C1 [Compound 384] | C (10%≤percent of modification <50%) | D (percent of modification <10%) | B (50≤percent of modification <70%) | 0.5 to 5
C=CC(=O)N1C[C@H](C)N(c2nc(OC)nc3c(F)c(-c4ccc(F)c5sc(N)c(C#N)c45)c(C(F)(F)F)cc23)C[C@H]1C [Compound 385] | D (percent of modification <10%) | D (percent of modification <10%) | C (10%≤percent of modification <50%) | 0.5 to 5
C=CC(=O)N1C[C@@H](F)[C@@H](N(CC)c2nc(OC[C@@]34CCCN3C[C@H](F)C4)nc3cc(-c4ccc(F)c5sc(N)c(C#N)c45)c(C#N)cc23)C1 [Compound 386] | A (percent of modification ≥70%) | B (50≤percent of modification <70%) | A (percent of modification ≥70%) | < 0.5
C=CC(=O)N1CCC(N(C)c2nc(OC[C@@]34CCCN3C[C@H](F)C4)nc3cc(-c4ccc(F)c5sc(N)c(C#N)c45)c(C#N)cc23)[C@H]1C (stereo partly drawn) [Compound 387, 4-((1-acryloyl-2-methylpyrrolidin-3-yl)(methyl)amino)-7-(2-amino-3-cyano-7-fluorobenzo[b]thiophen-4-yl)-2-(((2R,7aS)-2-fluorotetrahydro-1H-pyrrolizin-7a(5H)-yl)methoxy)quinazoline-6-carbonitrile] | A (percent of modification ≥70%) | A (percent of modification ≥70%) | A (percent of modification ≥70%) | < 0.5
